# Measurements published in PubChem BioAssay AID624417 (National Center for Advancing Translational Sciences (NCATS), 2012).
# Protein sequences, listed by entry. Tags and fused reporters are not part of them.
# UniProt P43220, whole entry: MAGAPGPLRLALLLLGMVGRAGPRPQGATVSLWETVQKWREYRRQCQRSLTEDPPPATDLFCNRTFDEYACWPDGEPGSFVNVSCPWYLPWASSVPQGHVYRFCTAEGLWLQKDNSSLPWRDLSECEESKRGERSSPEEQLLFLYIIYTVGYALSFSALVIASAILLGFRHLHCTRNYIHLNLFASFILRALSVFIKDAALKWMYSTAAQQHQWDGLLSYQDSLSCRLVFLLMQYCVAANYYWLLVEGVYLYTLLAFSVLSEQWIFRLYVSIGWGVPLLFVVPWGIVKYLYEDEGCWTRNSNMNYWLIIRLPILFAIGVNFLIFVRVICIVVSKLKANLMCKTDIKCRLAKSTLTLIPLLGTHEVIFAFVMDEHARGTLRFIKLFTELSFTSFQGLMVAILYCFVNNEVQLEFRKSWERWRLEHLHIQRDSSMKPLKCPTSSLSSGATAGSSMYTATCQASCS
# This is a selection; strong and weak results do not stand in their true shares. Results filed as inconclusive are left out. A call without a number means that no potency is given here. Calls of active or inactive are those of the source. Calls follow the shape of the dose curve; as a rule, active = well fitted inhibition curve with a large enough effect; inconclusive = small, poorly fitted or top-dose-only effect; inactive = no such curve, though single readings can be large or run the other way.
# Molecular target: Glucagon-like peptide 1 receptor (Homo sapiens) (UniProt P43220)
# Test: qHTS of GLP-1 Receptor Inverse Agonists (Inhibition Mode); also: nearly all actives have a fitted effect of over 55% in size
# Conditions: HEK293 GLP-1R CRE-luciferase, luminescence, 24 h, GLP-1R form is constitutively active; series mostly up to 38.3 µM
# Potency is read from the fitted curve at half-maximal effect.
SMILES,"activity change, negative = inhibition",Potency
O=[N+]([O-])c1cc([N+](=O)[O-])c(Nc2ccccn2)c([N+](=O)[O-])c1,inactive,–
Cc1c(NP(C)(=O)Oc2ccc(C(C)C)cc2)c(=O)n(-c2ccccc2)n1C (stereo not drawn),inactive,–
CP(=O)(Nc1ccccn1)Oc1ccccc1 (stereo not drawn),inactive,–
COc1ccccc1OP(C)(=O)Nc1ccc(C)cc1C (stereo not drawn),inactive,–
CCc1ccc(OP(C)(=O)O)cc1,inactive,–
COc1ccc(OP(C)(=O)Nc2ccccn2)cc1 (stereo not drawn),inactive,–
CN(C)CCOC(=O)C(O)(c1ccccc1)C1CCCC1 (stereo not drawn),inactive,–
CP(=O)(OCCOc1ccccc1)OCCOc1ccccc1,inactive,–
COc1ccc(OP(C)(=O)Nc2ccccc2Br)cc1 (stereo not drawn),inactive,–
Nc1ccc2c(ccc3cccnc32)n1.O=[N+]([O-])c1cc([N+](=O)[O-])c(O)c([N+](=O)[O-])c1,inactive,–
CCOC(=O)c1ccc(NP(C)(=O)Oc2ccc(Cl)cc2)cc1 (stereo not drawn),inactive,–
CP(=O)(OC12CC3CC(CC(C3)C1)C2)OC12CC3CC(CC(C3)C1)C2,inactive,–
CC(C)(C)c1ccc(OP(C)(=O)O)cc1,inactive,–
COc1ccccc1OP(C)(=O)Nc1ccccc1Br (stereo not drawn),inactive: -25.1% [at 7.66 µM],–
CP(=O)(Nc1ccc(Cl)cc1)Oc1ccc(F)cc1 (stereo not drawn),inactive,–
CN(C)C(=O)c1c([N+](=O)[O-])cc([N+](=O)[O-])cc1[N+](=O)[O-],inactive,–
COc1ccccc1OP(C)(=O)Nc1c(C)n(C)n(-c2ccccc2)c1=O (stereo not drawn),inactive,–
O=C(OCCCN1CCCC1)C(O)(c1ccccc1)C1CCCCC1 (stereo not drawn),–,active: 10 µM
CP(=O)(Oc1ccccc1)N1CCOC1=O (stereo not drawn),inactive,–
CCc1ccc(OP(C)(=O)Nc2cccnc2)cc1 (stereo not drawn),inactive: -2.73% [at 0.307 µM],–
CP(=O)(Nc1ccc2c(c1)OCCO2)Oc1ccccc1 (stereo not drawn),inactive,–

SMILES,"activity change, negative = inhibition",Potency
Cc1ccccc1NP(C)(=O)Nc1ccccc1C,inactive,–
O=[N+]([O-])c1cc([N+](=O)[O-])c(C(F)(F)F)c([N+](=O)[O-])c1O,inactive,–
CP(=O)(Nc1ccc(SC(F)(F)F)cc1)Oc1ccc(F)cc1 (stereo not drawn),–,active: 10 µM
CCOP(C)(=S)SCC(=O)NC(C)(CC)C(=O)O (stereo not drawn),inactive,–
O=[N+]([O-])c1ccc(OP2(=O)COCCO2)cc1 (stereo not drawn),inactive,–
Cc1c(C(c2ccc3c(c2)OCO3)c2c(C)n(C)n(-c3ccccc3)c2=O)c(=O)n(-c2ccccc2)n1C.O=[N+]([O-])c1cc([N+](=O)[O-])c(O)c([N+](=O)[O-])c1,inactive,–
COc1ccc(OP(C)(=O)Nc2cccc(Br)c2)cc1 (stereo not drawn),inactive,–
COc1ccc(NP(C)(=O)Oc2ccccc2OC)cc1 (stereo not drawn),inactive,–
Cc1c([N+](=O)[O-])cc([N+](=O)[O-])c(Br)c1[N+](=O)[O-],inactive,–
CP(=O)(Nc1ccccc1)Oc1ccc(F)cc1 (stereo not drawn),inactive,–
CCOC(=O)c1ccc(NP(C)(=O)Oc2ccc(F)cc2)cc1 (stereo not drawn),inactive,–
CP(=O)(Nc1ccccc1F)Oc1ccccc1 (stereo not drawn),inactive,–
Cc1cc(C)cc(OP(C)(=O)Nc2ccccn2)c1 (stereo not drawn),inactive,–
Cc1cc(C)cc(OP(C)(=O)Nc2ccc(C)cc2C)c1 (stereo not drawn),inactive,–
CC1=NCCc2c1[nH]c1ccccc21.O=[N+]([O-])c1cc([N+](=O)[O-])c(O)c([N+](=O)[O-])c1,inactive,–
CN1CCCCC1COC(=O)C1(O)c2ccccc2CCc2ccccc21 (stereo not drawn),inactive,–
COc1ccccc1OP(C)(=O)Nc1c(C)cccc1C (stereo not drawn),inactive,–
O=[N+]([O-])c1cc([N+](=O)[O-])c(Nc2nnnn2CCO)c([N+](=O)[O-])c1,inactive,–
CC1=C2N=C(C=C3N=C(C(C)=C4[N-][C@@](C)([C@@H]5N=C1[C@](C)(CCC(=O)NC[C@@H](C)OP(=O)([O-])O[C@H]1[C@@H](O)[C@@H](n6cnc7cc(C)c(C)cc76)O[C@@H]1CO)[C@H]5CC(N)=O)[C@@](C)(CC(N)=O)[C@@H]4CCC(N)=O)[C@@](C)(CC(N)=O)[C@@H]3CCC(N)=O)C(C)(C)[C@@H]2CCC(N)=O.[C-]#N.[Co+3],inactive,–
O=[N+]([O-])c1cc([N+](=O)[O-])c(-c2cnn(-c3ccccc3)c2)c([N+](=O)[O-])c1,inactive,–
Cc1nc2ccc3ccccc3c2s1.O=[N+]([O-])c1cc([N+](=O)[O-])c(O)c([N+](=O)[O-])c1,inactive,–

SMILES,"activity change, negative = inhibition",Potency
O=[N+]([O-])c1cc([N+](=O)[O-])c(-n2nnc3ccccc32)c([N+](=O)[O-])c1,inactive,–
CN(Cc1cccnc1)C(=O)COc1ccc(Cl)c(Cl)c1.O=[N+]([O-])c1cc([N+](=O)[O-])c(O)c([N+](=O)[O-])c1,inactive,–
O=[N+]([O-])c1cc([N+](=O)[O-])c(O)c([N+](=O)[O-])c1.c1ccc(Oc2ccncc2)cc1,inactive,–
CCOC(=O)c1ccc(NP(C)(=O)Oc2ccc(OC)cc2)cc1 (stereo not drawn),inactive,–
CCOP(C)(=S)SCC(=O)NC(C)C(=O)O (stereo not drawn),inactive,–
CP(=O)(Nc1ccccn1)Oc1ccc(Cl)cc1 (stereo not drawn),inactive,–
Cc1cccc(C)c1OP(C)(=O)Nc1ccc(SC(F)(F)F)cc1 (stereo not drawn),inactive,–
CP(=O)(NC(=O)Nc1ccccc1)Oc1ccccc1 (stereo not drawn),inactive,–
CP(=S)(Nn1cnnc1)Oc1ccccc1 (stereo not drawn),inactive,–
CP(=O)(Nc1ccccc1Br)Oc1ccccc1 (stereo not drawn),inactive,–
COc1ccccc1OP(C)(=O)Nc1ccccc1 (stereo not drawn),inactive,–
COc1ccccc1OP(C)(=O)Nc1ccc(C)cc1 (stereo not drawn),inactive,–
Cc1ccc(NP(C)(=O)Oc2ccccc2)c(C)c1 (stereo not drawn),inactive,–
CCOC(=O)c1ccc(NP(C)(=O)Oc2ccccc2)cc1 (stereo not drawn),inactive,–
Cc1cc(C)cc(OP(C)(N)=O)c1 (stereo not drawn),inactive,–
COc1ccccc1OP(C)(=O)Nc1cc(Cl)ccc1C (stereo not drawn),inactive,–
COc1ccc(OP(C)(=O)Nc2cccc(F)c2)cc1 (stereo not drawn),inactive,–
O=[N+]([O-])c1cc([N+](=O)[O-])c(Nc2cccnc2)c([N+](=O)[O-])c1,inactive,–
CC(C)(C)c1ccc(OP(C)(=O)Nc2ccc(SC(F)(F)F)cc2)cc1 (stereo not drawn),–,active: 4.47 µM
Cc1cccc(C)c1OP(C)(N)=O (stereo not drawn),inactive: 0.543% [at 7.66 µM],–
COc1ccccc1-c1ccccn1.O=[N+]([O-])c1cc([N+](=O)[O-])c(O)c([N+](=O)[O-])c1,inactive,–
